# Measurements published in patent US20230118642A1, “METHOD FOR TREATING THERAPY-RESISTANT MUC4+ CANCER” (CONSEJO NACIONAL DE INVESTIGACIONES CIENTÍFICAS Y TÉCNICAS, priority 2020, published 2023).
# System: JIMT-1-shMUC4 tumor
# Experiment: JIMT-1-shMUC4 tumor growth in female nude mice with or without doxycycline
# Format: in vivo
# Conditions: +doxycycline 2 mg/ml in drinking water (MUC4 knockdown); trastuzumab 5 mg/kg, XPRO1595 10 mg/kg i.p. twice a week
# Procedure: To evaluate the in vivo effect of MUC4 downregulation in trastuzumab-resistant tumors, we injected JIMT-shMUC4 cells in female nude mice. After the tumors were established, animals were randomly assigned to the experimental (+doxycycline 2 mg/ml in drinking water) or control group (-doxycycline). […] JIMT-1-sh-Control tumors with or without doxycycline administration behaved similar (FIG. 10C and FIG. 10D) to JIMT-1 wildtype tumors (FIG. 4A).
substance,measurement,value
trastuzumab: anti-HER2 monoclonal antibody used to treat breast cancer and stomach cancer,inhibition of JIMT-1-shMUC4 tumor growth vs. IgG,62%
